Antibody variant affinities, Ab-14 heavy chain, assay B

Reference: Li et al. 2023, doi:10.1038/s41467-023-39022-2. File: FLAb, binding data.

Binding partner: SARS-CoV-2 spike HR2 peptide, sequence PDVDLGDISGINAS.

Ab-14 is the parent antibody, in scFv form: VH, then three GGGGS repeats, then VL. The light chain is unchanged in all variants.
VH: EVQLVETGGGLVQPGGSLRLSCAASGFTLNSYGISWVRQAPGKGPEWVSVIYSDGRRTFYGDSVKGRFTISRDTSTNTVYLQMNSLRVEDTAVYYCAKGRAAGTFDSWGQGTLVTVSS
VL: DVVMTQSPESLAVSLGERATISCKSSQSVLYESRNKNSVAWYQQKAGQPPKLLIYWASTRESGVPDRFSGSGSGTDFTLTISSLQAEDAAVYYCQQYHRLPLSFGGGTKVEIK

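The parent was found by panning a naive human phage display library on the peptide. This is the validation round: designs drawn from the data on random variants, tested in the same kind of assay. Their group label is 14H_GPLM_Gibbs (GPLM: also part of the Gaussian process libraries; Gibbs: Gibbs sampling; a sequence that several methods proposed may carry one label only). Affinity was read by AlphaSeq, a pooled yeast mating assay with surface-displayed partners. Mating (16 h, 30 °C) was followed by selection of diploids and sequencing of their barcodes. The ratio of observed to expected reads was calibrated, replicate by replicate, on BCL2-family standards whose Kd was known from biolayer interferometry. Mating was done six times.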

Changes read parent residue, position, new residue, counted from the first residue of the VH shown. Scale: log10 of Kd in nM, estimated from mating counts; low values are strong binders. "n.d." marks a missing value. The strain was present, yet no cells mated with the target were sequenced in that replicate, which points to weak or no binding.

{"changes": "T28N/G61V/R100N/A101V", "log10 Kd (nM) by replicate": "0.57 0.73 0.13 0.43 0.45 0.31", "signal with controls": "0/18"}
{"changes": "T28V/S53A/A101T", "log10 Kd (nM) by replicate": "0.57 0.20 0.96 0.31 -0.19 0.64", "signal with controls": "0/18"}
{"changes": "T28E/G61V/A101Q/S107T", "log10 Kd (nM) by replicate": "0.55 0.64 0.31 0.50 0.54 1.13", "signal with controls": "0/18"}
{"changes": "T28N/S63D/R100E", "log10 Kd (nM) by replicate": "1.17 0.79 1.28 0.25 1.01 1.09", "signal with controls": "0/18"}
{"changes": "T28N/G61K/R100N", "log10 Kd (nM) by replicate": "1.22 0.92 0.76 1.20 0.39 0.78", "signal with controls": "0/18"}
{"changes": "T28D/R56M/G61I/R100N", "log10 Kd (nM) by replicate": "0.73 0.89 1.05 1.07 0.70 0.73", "signal with controls": "0/18"}
{"changes": "T28S/S31T/R100Q/A101T", "log10 Kd (nM) by replicate": "0.77 0.50 0.89 0.40 0.50 0.58", "signal with controls": "1/18 (1.70)"}
{"changes": "G26K/T28E/S53A", "log10 Kd (nM) by replicate": "3.37 0.81 1.78 0.47 0.94 1.22", "signal with controls": "0/18"}
{"changes": "R100Q/A101V/S107A", "log10 Kd (nM) by replicate": "1.40 1.66 2.06 1.16 1.66 2.28", "signal with controls": "0/18"}
{"changes": "T28D/S31T/A101E", "log10 Kd (nM) by replicate": "-0.04 -0.31 -0.08 -0.36 -0.26 -0.43", "signal with controls": "0/18"}
{"changes": "T28S/R100N/S107N", "log10 Kd (nM) by replicate": "0.37 0.48 0.08 -0.15 0.97 0.69", "signal with controls": "1/18 (0.16)"}
{"changes": "G61K/R100Q/A101E/S107N", "log10 Kd (nM) by replicate": "0.64 0.35 -0.19 0.38 -0.06 0.48", "signal with controls": "0/18"}
{"changes": "T28S/G61D/R100K/A101N", "log10 Kd (nM) by replicate": "0.41 0.32 1.04 0.62 -0.11 0.23", "signal with controls": "1/18 (1.33)"}
{"changes": "T28G/S53A/R100N", "log10 Kd (nM) by replicate": "0.24 0.50 0.21 0.33 0.25 0.29", "signal with controls": "0/18"}
{"changes": "T28E/R100S/A101T", "log10 Kd (nM) by replicate": "n.d. -0.50 n.d. 0.79 n.d. n.d.", "signal with controls": "0/18"}
{"changes": "T28D/G61S/R100V", "log10 Kd (nM) by replicate": "1.36 0.07 0.47 -0.20 0.95 0.77", "signal with controls": "0/18"}
{"changes": "G61S/R100Q/A101T/S107T", "log10 Kd (nM) by replicate": "0.10 -0.02 0.10 0.03 0.03 0.31", "signal with controls": "1/18 (2.26)"}
{"changes": "T28D/R56K/G61A/R100K", "log10 Kd (nM) by replicate": "-0.05 -0.15 -0.36 0.05 -0.19 -0.14", "signal with controls": "1/18 (2.54)"}
{"changes": "T28S/S31E/S63N/A101T", "log10 Kd (nM) by replicate": "-0.16 -0.28 0.04 -0.34 -0.23 -0.09", "signal with controls": "0/18"}
{"changes": "T28E/G61A/R100K/A101V", "log10 Kd (nM) by replicate": "0.43 0.31 0.00 -0.41 0.01 -0.04", "signal with controls": "0/18"}
{"changes": "T28E/G61V/A101N", "log10 Kd (nM) by replicate": "n.d. n.d. 1.70 1.47 n.d. n.d.", "signal with controls": "0/18"}
{"changes": "R56K/R100K/A101V", "log10 Kd (nM) by replicate": "1.12 1.10 0.62 0.83 1.18 0.84", "signal with controls": "0/18"}
{"changes": "T28D/S31M/G61A/A101T", "log10 Kd (nM) by replicate": "0.70 0.14 -0.28 -0.13 0.11 -0.33", "signal with controls": "0/18"}

Repeated from above, the 4 best binders with a signal in all replicates:

{"changes": "T28D/S31T/A101E", "log10 Kd (nM) by replicate": "-0.04 -0.31 -0.08 -0.36 -0.26 -0.43", "signal with controls": "0/18"}
{"changes": "T28S/S31E/S63N/A101T", "log10 Kd (nM) by replicate": "-0.16 -0.28 0.04 -0.34 -0.23 -0.09", "signal with controls": "0/18"}
{"changes": "T28D/R56K/G61A/R100K", "log10 Kd (nM) by replicate": "-0.05 -0.15 -0.36 0.05 -0.19 -0.14", "signal with controls": "1/18 (2.54)"}
{"changes": "T28D/S31M/G61A/A101T", "log10 Kd (nM) by replicate": "0.70 0.14 -0.28 -0.13 0.11 -0.33", "signal with controls": "0/18"}

The range of this assay differs from that of the first round, and the authors advise against merging the two. The authors averaged sequences with at least three values out of six and counted those with two or fewer as poor binders. Three control strains display no target. For all heavy chain designs, 1% of the pairings with them gave a signal, with a median of 2.08 and one signal in twenty below 0.84, so weak values seen in few replicates may be background. The control count says in how many pairings with the empty strains this scFv gave a signal, with their mean in brackets.